Amino acid sequences for entries named in this document (tags omitted). Residues count along the entry.
UniProt P08637, 17-208 F176V limits assumed: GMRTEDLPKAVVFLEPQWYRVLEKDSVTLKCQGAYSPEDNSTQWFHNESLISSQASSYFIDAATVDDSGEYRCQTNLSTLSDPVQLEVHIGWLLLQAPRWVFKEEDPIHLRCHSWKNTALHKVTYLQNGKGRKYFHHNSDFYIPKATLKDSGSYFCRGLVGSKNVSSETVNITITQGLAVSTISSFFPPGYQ
UniProt P55899, 24-297 limits assumed, chain 1 of 2: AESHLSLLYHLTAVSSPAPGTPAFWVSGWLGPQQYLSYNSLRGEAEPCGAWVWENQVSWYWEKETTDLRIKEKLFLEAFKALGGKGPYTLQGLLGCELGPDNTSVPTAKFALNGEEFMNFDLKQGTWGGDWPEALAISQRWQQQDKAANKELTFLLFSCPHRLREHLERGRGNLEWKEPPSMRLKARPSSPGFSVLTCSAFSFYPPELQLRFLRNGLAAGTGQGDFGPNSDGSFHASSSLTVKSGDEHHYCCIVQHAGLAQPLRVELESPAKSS

In patent US20200023071A1 (INNATE PHARMA, published 2020):

What was measured:
recombinant human CD64 = target: T1, recombinant human CD64 (human); assay: SPR (Biacore T100), antibody immobilized on sensor chip, soluble CD64 as analyte, 1:1 kinetic binding model
T1 construct: Cloned, produced and purified, and used as soluble analyte

recombinant human CD32a = target: T2, recombinant human CD32a (human, UniProt P12318 34-217); assay: SPR (Biacore T100), antibody immobilized on sensor chip, soluble FcR as analyte, steady state affinity model
T2 construct: Soluble analyte
T2 sequence (looked up): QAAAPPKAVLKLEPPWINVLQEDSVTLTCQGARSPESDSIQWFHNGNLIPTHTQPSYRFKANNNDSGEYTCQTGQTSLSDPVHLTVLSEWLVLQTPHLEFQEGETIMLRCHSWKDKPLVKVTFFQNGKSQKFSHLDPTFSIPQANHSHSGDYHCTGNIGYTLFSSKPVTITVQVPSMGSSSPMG

recombinant human CD32b = target: T3, recombinant human CD32b (human, UniProt P31994 43-217); assay: as above
T3 construct: Soluble analyte
T3 sequence (looked up): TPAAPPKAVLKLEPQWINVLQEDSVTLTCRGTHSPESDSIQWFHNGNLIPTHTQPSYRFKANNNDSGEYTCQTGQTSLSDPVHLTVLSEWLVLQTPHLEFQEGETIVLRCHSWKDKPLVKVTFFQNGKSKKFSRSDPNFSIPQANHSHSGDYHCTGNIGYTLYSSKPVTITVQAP

[1] = target: recombinant human CD16a(V) (human, UniProt P08637, in part); assay: as above
human FcRn = human FcRn (human, UniProt P55899, in part; P61769, in part); assay: as above

Kd (recombinant human CD64): 96.8 nM
Kd (recombinant human CD32a): 3220 nM
Kd (recombinant human CD32b): 2660 nM
Kd [1]: 8510 nM
Kd (human FcRn): 1180 nM
B1: antibody having a human IgG4 domain with S241P substitution (antibody)
chain: ASTKGPSVFPLAPCSRSTSESTAALGCLVKDYFPEPVTVSWNSGALTSGVHTFPAVLQSSGLYSLSSVVTVPSSSLGTKTYTCNVDHKPSNTKVDKRVESKYGPPCPPCPAPEFLGGPSVFLFPPKPKDTLMISRTPEVTCVVVDVSQEDPEVQFNWYVDGVEVHNAKTKPREEQFNSTYRVVSVLTVLHQDWLNGKEYKCKVSNKGLPSSIEKTISKAKGQPREPQVYTLPPSQEEMTKNQVSLTCLVKGFYPSDIAVEWESNGQPENNYKTTPPVLDSDGSFFLYSRLTVDKSRWQEGNVFSCSVMHEALHNHYTQKSLSLSLGK
